Reference: patent US20260070887A1 (Shenzhen Zhongge Biological Technology Co., Ltd., priority 2022, published 2026)

The chains behind the UniProt entries cited, without tags or fusion partners.
UniProt Q8NI77, whole entry: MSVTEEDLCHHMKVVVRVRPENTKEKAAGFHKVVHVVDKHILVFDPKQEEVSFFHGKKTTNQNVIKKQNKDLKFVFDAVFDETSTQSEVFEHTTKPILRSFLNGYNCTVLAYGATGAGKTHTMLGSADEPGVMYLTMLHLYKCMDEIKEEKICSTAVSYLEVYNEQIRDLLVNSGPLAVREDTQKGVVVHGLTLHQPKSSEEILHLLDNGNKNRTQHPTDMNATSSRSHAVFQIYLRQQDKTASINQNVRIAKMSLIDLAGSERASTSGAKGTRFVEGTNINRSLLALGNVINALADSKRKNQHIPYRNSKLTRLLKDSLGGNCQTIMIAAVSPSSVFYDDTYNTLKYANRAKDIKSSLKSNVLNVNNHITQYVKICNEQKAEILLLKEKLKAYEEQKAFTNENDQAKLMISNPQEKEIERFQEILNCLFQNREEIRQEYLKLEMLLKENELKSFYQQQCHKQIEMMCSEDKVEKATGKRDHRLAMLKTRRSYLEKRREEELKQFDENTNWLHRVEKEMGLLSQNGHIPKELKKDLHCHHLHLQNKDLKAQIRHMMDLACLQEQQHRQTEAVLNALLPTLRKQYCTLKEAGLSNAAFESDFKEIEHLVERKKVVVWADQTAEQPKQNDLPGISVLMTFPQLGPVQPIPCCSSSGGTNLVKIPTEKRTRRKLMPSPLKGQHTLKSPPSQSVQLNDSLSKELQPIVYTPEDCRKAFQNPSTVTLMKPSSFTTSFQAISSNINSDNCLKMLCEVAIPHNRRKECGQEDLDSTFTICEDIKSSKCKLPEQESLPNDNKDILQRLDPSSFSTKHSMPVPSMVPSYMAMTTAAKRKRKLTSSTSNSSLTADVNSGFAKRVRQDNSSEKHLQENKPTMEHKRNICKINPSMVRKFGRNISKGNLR
UniProt P02554, whole entry partner: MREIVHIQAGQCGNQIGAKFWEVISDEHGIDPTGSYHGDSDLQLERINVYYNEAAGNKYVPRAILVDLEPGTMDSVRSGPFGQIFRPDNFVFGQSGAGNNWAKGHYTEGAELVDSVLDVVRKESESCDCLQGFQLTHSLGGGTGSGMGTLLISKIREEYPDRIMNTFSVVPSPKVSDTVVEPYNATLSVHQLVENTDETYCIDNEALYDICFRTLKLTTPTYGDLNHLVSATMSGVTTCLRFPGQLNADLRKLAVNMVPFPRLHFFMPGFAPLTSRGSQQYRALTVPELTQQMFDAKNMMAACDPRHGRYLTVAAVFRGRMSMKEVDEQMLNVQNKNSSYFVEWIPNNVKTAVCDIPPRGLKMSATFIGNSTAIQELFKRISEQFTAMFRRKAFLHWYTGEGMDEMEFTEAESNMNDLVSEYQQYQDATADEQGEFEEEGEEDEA
UniProt P02550, whole entry partner: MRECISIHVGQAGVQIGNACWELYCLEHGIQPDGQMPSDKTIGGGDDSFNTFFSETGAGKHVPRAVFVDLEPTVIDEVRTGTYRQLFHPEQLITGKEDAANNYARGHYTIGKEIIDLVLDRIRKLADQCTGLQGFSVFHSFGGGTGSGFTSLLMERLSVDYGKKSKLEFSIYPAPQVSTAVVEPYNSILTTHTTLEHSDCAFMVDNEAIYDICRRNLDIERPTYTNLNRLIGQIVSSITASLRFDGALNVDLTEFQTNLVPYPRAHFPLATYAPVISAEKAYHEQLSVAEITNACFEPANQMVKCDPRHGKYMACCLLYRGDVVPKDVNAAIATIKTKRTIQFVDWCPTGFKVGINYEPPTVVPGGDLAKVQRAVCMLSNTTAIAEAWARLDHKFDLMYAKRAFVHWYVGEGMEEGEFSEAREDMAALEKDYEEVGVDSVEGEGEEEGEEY

Assays:
KIF18A = KIF18A (Homo sapiens (Human), UniProt Q8NI77); assay: KIF18A ATPase activity under tubulin stimulation (ADP-Glo assay); settings: read-out: ADP-Glo IC50; KIF18A 30 nM, ATP 150 μM, pig microtubules
Experimental: This experiment assesses the inhibitory effect of the compounds of the present disclosure on the KIF18A target according to the IC50 values by measuring the KIF18A ATPase activity under tubulin stimulation with the presence of the compounds.
• 1. Preparation of 30 mL of reaction buffer: • (1) 450 μL 1M Tris-HCl (pH=7.5)+300 μL 1M MgCl2+30 μL 10% Pluronic F-68 (ThermoFisher, 24040032-100 ml); • (2) adjusting pH to 7.5, and adding water to adjust the volume to 30 mL. • 2. Preparation of a 5 mg/mL pig microtubule (Microtubules; MT) (Cytoskeleton Inc, MT002) stock solution: • (1) 10 mL PM buffer=150 μL 1 M PIPES (pH 7.0)+20 μL 0.5 mM MgCl2+100 μL 2 mM Taxol (Cytoskeleton Inc, TXD01)+9730 μL water. • (2) MT ([…]): Adding 100 μL PM buffer to prepare a 5 mg/mL stock solution. Keeping the MT (Cytoskeleton Inc, MT002) at room temperature for 10-15 minutes, gently mixing and storing same at −80° C. • 3. Preparation of 2 mL of kinase buffer: 2 mL reaction buffer+1 μL 2 mM Taxol (Cytoskeleton Inc, TXD01)+12 μL 5 mg/mL MT (Cytoskeleton Inc, MT002). • 4. Preparation of 2×KIF18A (30 nM) (ChemPartner, CPB-P22-31645) working solution: 2.4 μL 10 μM KIF18A (ChemPartner, CPB-P22-31645)+800 μL 1× kinase buffer. • 5. […] Luminescence values were measured using the EnVision Xcite Multilabel Reader (PerkinElmer, 2105-0020).

OVCAR-3 cells = assay: OVCAR-3 cell proliferation (Cell Titer-Glo, 10 days); settings: read-out: OVCAR-3 IC50
Experimental: The inhibitory effect on the KIF18A target by the compounds of the present disclosure was evaluated by testing the inhibitory effect on proliferation of OVCAR-3 cells by the compounds of the present disclosure.
The following method was used to determine the effect of the compounds of the present disclosure on the proliferation of human ovarian cancer cells Ovcar-3 (HTB-161, ATCC). Cells were cultured in RPMI-1640 complete medium containing 20% fetal bovine serum, 0.01 mg/mL bovine insulin, 100 U penicillin, and 100 μg/mL streptomycin. The Promega kit Cell Titer-Glo (Cat. No. G7572) was used in this method for test.
For specific steps, reference was made to the kit instructions, and the procedure was outlined below: Test compounds were dissolved in DMSO to prepare a 10 mM stock solution, which was diluted at the predetermined test concentrations, and the test compounds at different concentrations were added to a 384-well cell test plate using ECHO. […] The luminescence values for samples in various wells were read using a microplate reader in Luminescence mode.
The percentage of inhibition of cell proliferation by the test compound at each concentration was calculated by comparing with the values of the control group (0.1% DMSO). […]

IC50 (KIF18A) | IC50 (OVCAR-3 cells) | Compound
500 to 5000 nM |  | CC1OCCn2c1cc1c(NC(=O)c3ccc(NS(=O)(=O)CCO)cc3N3CCC(=C(F)F)CC3)cccc12 (single isomer, unassigned) [320-P1]
< 50 nM | < 50 nM | CC1OCCn2c1cc1c(NC(=O)c3ccc(NS(=O)(=O)CCO)cc3N3CCC(=C(F)F)CC3)cccc12 (single isomer, unassigned) [320-P2]
